Results taken from patent US20250387492A1, “HSP90-TARGETING CONJUGATES AND FORMULATIONS THEREOF” (Fusion Pharmaceuticals Inc., priority 2018, published 2025).

How the values were obtained:
H460 tumor model mice = test: Biodistribution in H460 tumor model; conditions: 5 mg/kg
Excerpt: (§1) In other studies, biodistribution of the conjugates was studied with H460 and H69 tumor models.

[1] = Lu levels in tumor, kidney and liver of mice at 0.5 mg/kg
H69 tumor model mice = test: Biodistribution in H69 tumor model; conditions: 5 mg/kg
Excerpt: as §1

In the case of `CCNC(=O)c1nnc(-c2cc(C(C)C)c(O)cc2O)n1-c1ccc(CN2CCN(C(=O)CCNC(=O)[C@@H](CCC(=O)O)NC(=O)[C@@H](CCC(=O)O)NC(=O)[C@@H](CCC(=O)O)NC(=O)CN3CCN4CCN5CCN(CC3)CC(=O)[O][Lu]([O]C(=O)C4)[O]C(=O)C5)CC2)cc1` [Conjugate 2], the “Tumor:kidney ratio, 24 h, H460 (2)” value (H460 tumor model mice; 24 h, H460 study (2)) was 0.41, the “Tumor:liver ratio, 24 h, H460 (2)” value (H460 tumor model mice; 24 h, H460 study (2)) was 49.7 and the “tumor:liver ratios (comparison)” value (H460 tumor model mice; H460 and H69 tumor models, Conjugate 1 vs Conjugate 2) was “better”. For the same molecule, the “tumor:kidney ratio” value (H460 tumor model mice; H460 tumor model) was 0.4, the “tumor:liver ratios” value (H460 tumor model mice; at 24 h, across H460 and H69 tumor models) was 9-50 and the “Average Lu in Liver” value [1] was 0.50 % ID/g. The “Tumor:liver ratio, 24 h, H69” value (H69 tumor model mice) was 8.9.
